Laboratory results as given in patent publication US20130336924A1.

Chains of the proteins cited; added tags and fusions are not shown. Residues count along the entry.
UniProt P40189, 23-918 limits assumed: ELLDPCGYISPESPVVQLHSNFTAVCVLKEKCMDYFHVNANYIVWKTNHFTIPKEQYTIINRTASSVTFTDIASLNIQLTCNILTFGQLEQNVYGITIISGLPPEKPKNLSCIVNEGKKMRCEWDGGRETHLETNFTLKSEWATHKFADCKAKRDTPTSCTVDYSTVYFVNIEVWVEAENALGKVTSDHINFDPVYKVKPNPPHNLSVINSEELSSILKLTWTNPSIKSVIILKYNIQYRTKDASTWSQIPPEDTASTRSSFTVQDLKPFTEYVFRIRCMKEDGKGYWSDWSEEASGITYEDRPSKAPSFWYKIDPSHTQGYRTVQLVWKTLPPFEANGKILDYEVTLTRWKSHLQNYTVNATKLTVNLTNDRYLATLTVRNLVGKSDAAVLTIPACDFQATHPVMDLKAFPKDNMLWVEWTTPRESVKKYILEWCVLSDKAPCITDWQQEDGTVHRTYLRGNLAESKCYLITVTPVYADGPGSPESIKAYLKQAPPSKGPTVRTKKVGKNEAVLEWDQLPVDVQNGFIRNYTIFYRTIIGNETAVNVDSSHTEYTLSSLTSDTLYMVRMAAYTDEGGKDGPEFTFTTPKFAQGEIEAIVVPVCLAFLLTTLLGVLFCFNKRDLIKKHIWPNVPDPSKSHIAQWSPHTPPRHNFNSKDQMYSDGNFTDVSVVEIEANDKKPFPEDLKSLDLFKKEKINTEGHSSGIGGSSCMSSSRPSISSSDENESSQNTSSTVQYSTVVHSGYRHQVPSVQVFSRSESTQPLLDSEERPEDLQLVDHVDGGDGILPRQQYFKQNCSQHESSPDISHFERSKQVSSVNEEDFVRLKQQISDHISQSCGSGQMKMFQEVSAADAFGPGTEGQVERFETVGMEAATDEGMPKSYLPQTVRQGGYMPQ

Target: gp130 on HEK-Blue IL-6 cells (human) (UniProt P40189)
Experiment: cell-based or functional assay

EC50, IL-6-induced SEAP reporter in HEK-Blue IL-6 cells (agonist activity): 1 pM
Substance: IL-6 (from UniProt P05231 30-212) (ligand)
